Results from patent EP4840470A1, “ANTIBODY-DRUG CONJUGATE AND USE THEREOF” (dated 2026).

Experiments:
[1] = system: HPAC cells (carrying KRas G12D mutant protein); assay: Human pancreatic cancer HPAC subcutaneous xenograft efficacy study (Activity Example 3); conditions: 50 mpk, PO, BID × 21, Day 20; vehicle control 771
Experimental: 6-8 week old female NOD/SCID mice (Jiangsu Jicui Yaokang Biotechnology Co., Ltd.) were subcutaneously inoculated on the right posterior back with 1×10^7 HPAC cells (carrying KRas G12D mutant protein, ATCC) in 0.1 mL volume. When tumors grew to an average volume of 150 mm^3, mice were randomized into groups based on tumor size and mouse body weight. The day of dosing was considered Day 0. Test compounds were administered once daily via tail vein injection or oral gavage, 5 mice per group, at a dose of 50 mg/kg. The control group was administered the same volume of vehicle control via tail vein injection or oral gavage.
Body weight and tumor size were measured twice weekly during the experiment. The formula for tumor volume was calculated as: Tumor volume (mm^3) = 0.5 × (tumor long diameter × tumor short diameter^2). Mean tumor growth inhibition TGI% = [(mean tumor volume in control group - mean initial tumor volume in control group) - (mean tumor volume in treatment group - mean initial tumor volume in treatment group)] / (mean tumor volume in control group - mean initial tumor volume in control group).

[2] = system: KRAS G12D mutant AGS human gastric adenocarcinoma cells; assay: Proliferation of KRAS G12D mutant AGS cells, CTG assay, 3 days (Activity Example 1)
Experimental: AGS cells (adherent) (Nanjing Kebai Biotechnology Co., Ltd., Cat# CBP60476) were cultured at 37 °C, 5% CO2, 95% humidity (3000/well, RPMI-1640 + 10% FBS (GIBCO, Cat#10099-141)).
Cells in the logarithmic growth phase were harvested and counted using a platelet counter. Cell viability was assessed by trypan blue exclusion, ensuring >90% viability. The cell concentration was adjusted; 90 µL of cell suspension was added to each well of a 96-well plate (Corning®, Cat# 3603). The cells in the 96-well plate were cultured at 37 °C, 5% CO2 (Thermo Scientific, Model 3100 Series).
Drug dilution and addition: a) Single-point inhibition rate assay: 10x drug solutions were prepared, and 10 µL drug solution was added each well of 96-well plate inoculated with cells to achieve a working concentration of 1 µM, with three replicate wells per drug concentration; b) Preparation of drug for IC50 assay: 10x drug solutions were prepared, and 10 µL drug solution was added each well of 96-well plate inoculated with cells to achieve a top working concentration of 10 µM with 3.16-fold serial dilution (9 concentrations), three replicate wells per drug concentration. The cells in the drug-treated 96-well plate were cultured at 37 °C under 5% CO2 for 3 days, followed by CTG assay (CellTiter-Glo® Luminescent Cell Viability Assay, Promega, Cat# G7572).
CTG reagent was thawed, and cell plates were equilibrated to room temperature for 30 minutes. An equal volume of CTG solution was added to each well, and the plates were shaken on an orbital shaker for 5 minutes to lyse the cells. The plates were placed at room temperature for 20 minutes to stabilize the luminescent signal, and luminescence was read (SpectraMax Multi-Mode Microplate Reader, MD, 2104-0010A). Data were analyzed using GraphPad Prism 7.0 software, and dose-response curves were fitted by nonlinear S-curve regression to calculate IC50 values. [formula]

GP2D (G12D) = assay: Proliferation of KRAS mutant cells, drug P compounds (Activity Example 6)
Experimental: (§1) A sterile 1% methylcellulose 3D culture medium was prepared in advance. Cells in the logarithmic growth phase were harvested, and cell counting and viability assessment were performed using a Countstar automatic cell counter based on the classical trypan blue staining principle, ensuring that cell viability was above 90%. Cell concentrations for GP2D, HPAC, AsPC-1, KP-4, and Panc 04.03 were adjusted to a final methylcellulose (Sigma, 9004-67-5) concentration of 0.65%, mixed, and allowed to stand until no visible air bubbles. 80 µL of cell suspension (1000-2000 cells) was added to a 96-well plate (Corning, 3603). The cells in the 96-well plate were cultured overnight at 37 °C, 5% CO2, and 95% humidity (Thermo Scientific, Model 371 Series).
(§2) Preparation of drug for IC50 assay: 10 mM DMSO stock solutions of each compound were prepared. First dilution in DMSO to 5 mM, then 3-fold serial dilution to 9 concentrations to prepare DMSO solutions of different concentrations for each compound. Second 1:100 dilution (phosphate-buffered saline DPBS, Corning, 21-031-CVC) was used to prepare a 5x dilution of each compound, using complete medium as solvent. Finally, 20 µL of each compound dilution was added per well to the cell-seeded plates, with a final top concentration of 10 µM, 9 concentrations, 3-fold dilution, two replicate wells per drug concentration.
(§3) The treated plates were incubated at 37 °C, 5% CO2 for 120 hours, followed by CTG analysis (CellTiter-Glo® Luminescent Cell Viability Assay, Promega, Cat# G7573). CTG reagent was thawed, and cell plates were equilibrated to room temperature for 30 minutes. 75 µL of CTG solution was added per well. Plates were shaken on an orbital shaker for 5 minutes to lyse cells, then placed at room temperature for 20 minutes to stabilize the luminescent signal. Luminescence was read (EnVision Multimode Plate Reader, PerkinElmer #2105). Data were analyzed using GraphPad Prism 9.0 software, and dose-response curves were fitted by nonlinear S-curve regression to calculate IC50 values (nM). Cell viability (%) = (Lumtest drug−Lummedium control)/(Lumvehicle control−Lummedium control) × 100% [formula]
(§4) Following essentially the same experimental method and procedure as Activity Example 5, the inhibitory effect of representative drug P unit compounds of ADC of the present disclosure on proliferation of KRAS mutant cells was tested in cell lines H358, H727, A549, GP2D, MKN1 (purchased from Nanjing Kebai Biotechnology Co., Ltd.) and cell lines A375 and HCT116 (purchased from Cell Bank of the Chinese Academy of Sciences): […]

A375 (WT) = assay: as above
Experimental: as §1, §2, §3, §4

MKN1 (WT, amp) = assay: as above
Experimental: as §1, §2, §3, §4

H727 (G12V) = assay: as above
Experimental: as §1, §2, §3, §4

H358 (G12C) = assay: as above
Experimental: as §1, §2, §3, §4

A549 (G12S) = assay: as above
Experimental: as §1, §2, §3, §4

HCT116 (G13D) = assay: as above
Experimental: as §1, §2, §3, §4

GP2D cells [3] = assay: KRAS-G12D mutant human colon cancer GP2D subcutaneous xenograft, drug P unit compounds (Activity Example 4); conditions: 10 mg/kg, twice daily by oral gavage; for Tumor Volume (Day 21): vehicle control 1026
Experimental: GP2D cells (Nanjing Kebai Biotechnology Co., Ltd.) were cultured in culture medium containing DMEM and 10% FBS, and cells in logarithmic growth phase were collected and resuspended in PBS to an appropriate concentration for subcutaneous tumor inoculation in BALB/c female nude mice (nude, purchased from Jiangsu Ji Yao Kang Biotechnology Co., Ltd.). Experimental mice were subcutaneously inoculated on the right posterior back with GP2D cells at a density of 1 × 10^7 cells per mouse, with the cells resuspended in a 1:1 PBS and Matrigel (inoculation volume: 0.1 mL). When average tumor volume reached ~150 mm^3, mice were randomized based on tumor size and body weight. Dosing began immediately after grouping; the day of dosing was considered Day 0. Compounds were administered twice daily by oral gavage at a dose of 10 mg/kg or vehicle control (0.5% Tween 80 + 99.5% (0.5% MC (400cp))). Body weight and tumor size were measured twice weekly during the experiment. [formula] [formula]

GP2D cells [4] = assay: KRAS-G12D mutant human colon cancer GP2D subcutaneous xenograft, ADC compounds (Activity Example 8); conditions: 0.15 mg/kg (payload P3 equivalent in 1), dosing D0,7,14; Day 21 (Figure 6 study)
Experimental: GP2D cells (Nanjing Kebai Biotechnology Co., Ltd.) were cultured in culture medium containing DMEM and 10% FBS, and cells in logarithmic growth phase were collected and resuspended in PBS to an appropriate concentration mixed 1:1 with matrigel for subcutaneous tumor inoculation on the right posterior back of BALB/c female mice (purchased from Jiangsu Jicui Yaokang Biotechnology Co., Ltd.). Mice were inoculated subcutaneously on the right posterior back with 1×10^7 GP2D cells per mouse in 0.1 mL volume. When average tumor volume reached ~150 mm^3, mice were randomized into groups based on tumor size and body weight. The day of dosing was considered D0. Compounds were administered via tail vein injection at 20 mg/kg or 10 mg/kg. The vehicle control group received PBS. Mouse body weights and tumor volumes were measured twice weekly. [formula] [formula]

SMILES | IC50 [2] [nM] | IC50 (A375 (WT)) [nM] | IC50 (MKN1 (WT, amp)) [nM] | IC50 (H727 (G12V)) [nM] | IC50 (H358 (G12C)) [nM] | IC50 (GP2D (G12D)) [nM] | further results
CCN1CC[C@H](C(F)F)[C@](C)(COc2nc3c4c(nc(-c5cc(N)cc(Cl)c5C(F)(F)F)c(F)c4n2)O[C@@H](C)[C@@H]2[C@@H]4CC[C@H](CN32)N4)C1 | – | > 100 | > 100 | – | – | < 5 | –
C#Cc1c(F)ccc2cc(O)cc(-c3ncc4c(N5C[C@H]6CC[C@@H](C5)N6)nc(OC[C@]5(C)CN(C)CC/C5=C\F)nc4c3F)c12 | 4 | – | – | – | – | – | Tumor Volume (Day 20) [1]: 77 mm^3
CCN1CC/C(=C\F)[C@](C)(COc2nc(N3Cc4c(COC)c(C(=O)N(C)C)nn4CC[C@@H]3C)c3cc(Cl)c(-c4c(F)ccc5sc(N)c(C#N)c45)c(F)c3n2)C1 | – | > 100 | < 5 | < 5 | < 5 | < 5 | IC50 (A549 (G12S)): > 100 nM; IC50 (HCT116 (G13D)): > 100 nM
[2H]C([2H])([2H])N1CCC(C(F)F)C(C)(C([2H])([2H])Oc2nc(N3CC4CCC(C3)N4)c3cc(C(F)(F)F)c(-c4cccc5sc(N)c(C#N)c45)c(F)c3n2)C1 (single isomer, unassigned) | – | – | – | – | – | – | Tumor Volume (Day 21) (GP2D cells [3]): 70 mm^3
CCn1c(-c2cc(N3CCN(C)CC3)cnc2[C@H](C)OC)c2c3cc(ccc31)-c1csc(n1)C[C@H](NC(=O)[C@H]1C[C@@H]1C)C(=O)N1CCC[C@H](N1)C(=O)OCC(C)(C)C2 | – | > 100 | > 100 | < 5 | < 5 | < 5 | IC50 (A549 (G12S)): > 100 nM; IC50 (HCT116 (G13D)): 5 to 100 nM
CCN1CC/C(=C\F)[C@](C)(COc2nc3c4c(nc(-c5cc(N)cc(Cl)c5C(F)(F)F)c(F)c4n2)OC(C)[C@@H]2[C@@H]4CC[C@H](CN32)N4)C1 (some centres unmarked) | – | > 100 | > 100 | – | – | < 5 | –

Second part, led by results:

IC50 [2] [nM] | IC50 (A375 (WT)) [nM] | IC50 (MKN1 (WT, amp)) [nM] | IC50 (H727 (G12V)) [nM] | IC50 (H358 (G12C)) [nM] | SMILES | IC50 (GP2D (G12D)) [nM] | further results
7 | – | – | – | – | C#Cc1c(F)ccc2cc(O)cc(-c3c(F)cc4c(N5CC6CCC(C5)N6)nc(OCC5(C)CN(C)CCC5C(F)F)nc4c3F)c12 (centres unmarked) | – | Tumor Volume (Day 20) [1]: 135 mm^3
– | > 100 | > 100 | – | – | C#Cc1c(F)ccc2cc(O)cc(-c3nc4c5c(nc(OC[C@@]67CCCN6C[C@H](F)C7)nc5c3F)N3C[C@H]5CC[C@H](N5)[C@H]3[C@H](C)O4)c12 | < 5 | –
– | – | – | < 5 | 5 to 100 | C#Cc1c(F)ccc2cc(O)cc(-c3nc4c5c(nc(OC[C@]6(C)CN(CC)CC[C@@H]6C(F)F)nc5c3F)N3CCCOC[C@H]3CO4)c12 | < 5 | –
1 | – | – | – | – | C#Cc1c(F)ccc2cc(O)cc(-c3nc(C#C)c4c(N5C[C@H]6CC[C@@H](C5)N6)nc(OC[C@]5(C)CN(C)CC/C5=C\F)nc4c3F)c12 | – | TGI (GP2D cells [3]): 70%; Tumor Volume (Day 21) (GP2D cells [3]): 419 mm^3
– | – | – | < 5 | 5 to 100 | C#Cc1c(F)ccc2cc(O)cc(-c3nc4c5c(nc(OC[C@]6(C)CN(CC)CC/C6=C\F)nc5c3F)N3CCCOC[C@H]3CO4)c12 | < 5 | –
– | > 100 | 5 to 100 | 5 to 100 | 5 to 100 | C#Cc1c(F)ccc2cc(O)cc(-c3nc4c5c(nc(OC[C@@]67CCCN6C[C@H](F)C7)nc5c3F)N3CCCOC[C@H]3CO4)c12 | < 5 | IC50 (A549 (G12S)): > 100 nM; IC50 (HCT116 (G13D)): > 100 nM
2 | – | – | – | – | C#Cc1c(F)ccc2cc(O)cc(-c3nc(OC)c4c(N5C[C@H]6CC[C@@H](C5)N6)nc(OC[C@]5(C)CN(C)CC/C5=C\F)nc4c3F)c12 | – | Tumor Volume (Day 20) [1]: 113 mm^3
2 | – | – | – | – | C#Cc1c(F)ccc2cc(O)cc(-c3nc(OC)c4c(N5C[C@H]6CC[C@@H](C5)N6)nc(OC[C@]5(C)CN(C)CC[C@@H]5C(F)F)nc4c3F)c12 | – | TGI (%) (GP2D cells [4]): -1%; Tumor volume (mm^3, Day 21) (GP2D cells [4]): 1050 mm^3; Tumor Volume (Day 20) [1]: 117 mm^3
